## scFv variants of Ab-14 (light chain) against a SARS-CoV-2 spike peptide

All variants were tested on one target, the spike HR2 peptide PDVDLGDISGINAS (SARS-CoV-2).

Each scFv is VH, a (GGGGS)3 linker, VL, as in the parent Ab-14, and differs from it in the CDRs of the light chain only.
VH: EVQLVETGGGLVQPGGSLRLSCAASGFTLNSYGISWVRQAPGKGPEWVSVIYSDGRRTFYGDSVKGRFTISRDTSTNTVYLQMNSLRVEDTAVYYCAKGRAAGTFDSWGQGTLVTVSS
VL: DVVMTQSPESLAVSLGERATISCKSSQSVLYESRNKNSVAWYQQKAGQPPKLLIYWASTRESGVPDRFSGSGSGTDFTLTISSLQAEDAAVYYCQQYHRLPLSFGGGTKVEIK

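The parent was found by panning a naive human phage display library on the peptide. The variants were designed computationally from a first round of random CDR variants and then made and measured. Their group label is 14L_GP_HC (GP: Gaussian process model; HC: hill climbing; a sequence that several methods proposed may carry one label only). The assay is AlphaSeq: two haploid yeast populations carry antibody and antigen on their surface. Mating (16 h, 30 °C) was followed by selection of diploids and sequencing of their barcodes. Each replicate has its own calibration line, from reference interactions of the BCL2 family. Mating was done six times.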

Sequences are complete VL domains. Scale: log10 of Kd in nM, estimated from mating counts; low values are strong binders. The authors' rule: three or more of the six replicates give a measured affinity, fewer mean a poor binder. As a blank, each scFv also met three strains without target: over all light chain designs, 4% of these pairings were detected, typically at 2.64 and seldom below 1.59. Also given: how often the same scFv was detected with the empty control strains, with their mean in brackets. Values of this round are not directly comparable with the first-round values of the same sequences. The parent sequence was in this pool as ten entries: three were never detected, three once, and four in most replicates, with averages from 0.34 to 2.37.

{"VL": "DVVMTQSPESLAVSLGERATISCKLPQSVKYESRNKNSVAWYQQKAGQPPKLLIYHASTREDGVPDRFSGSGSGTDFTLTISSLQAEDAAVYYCQQYHRLPLSFGGGTKVEIK", "log10 Kd, replicates": "0.43 / 0.84 / 0.69 / 0.64 / 0.76 / 0.83", "empty controls": "0/18"}
{"VL": "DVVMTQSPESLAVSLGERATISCKSPQSTLYESRNKNSVAWYQQKAGQPPKLLIYHASTREDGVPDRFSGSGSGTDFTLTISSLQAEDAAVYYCQSYHRLPLSFGGGTKVEIK", "log10 Kd, replicates": "0.27 / 0.36 / 0.18 / 0.12 / 0.21 / 0.35", "empty controls": "1/18 (2.54)"}
{"VL": "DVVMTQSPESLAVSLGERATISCKFSQMVLYESRTKNSVAWYQQKAGQPPKLLIYNASTRESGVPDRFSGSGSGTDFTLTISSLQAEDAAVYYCQQYHRLPLSFGGGTKVEIK", "log10 Kd, replicates": "0.65 / 0.76 / 0.33 / 1.05 / 0.78 / 0.76", "empty controls": "0/18"}
{"VL": "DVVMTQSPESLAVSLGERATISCKSMQSVLYESRNKNNVAWYQQKAGQPPKLLIYHASTREDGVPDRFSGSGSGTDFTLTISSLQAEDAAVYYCQQYARLPLSFGGGTKVEIK", "log10 Kd, replicates": "-0.12 / -0.17 / -0.46 / -0.33 / -0.31 / -0.17", "empty controls": "1/18 (2.11)"}
{"VL": "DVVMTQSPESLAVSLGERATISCKMSQSVLFEWRNKNSVAWYQQKAGQPPKLLIYDASTRESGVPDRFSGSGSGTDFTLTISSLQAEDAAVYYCQQYHRLPLSFGGGTKVEIK", "log10 Kd, replicates": "-0.06 / -0.03 / -0.28 / -0.17 / -0.44 / 0.12", "empty controls": "0/18"}
{"VL": "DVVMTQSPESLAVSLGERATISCKYYPSYLYESRNKNSVAWYQQKAGQPPKLLIYNASQRESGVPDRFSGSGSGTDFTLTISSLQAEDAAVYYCQQYHRLPLSFGGGTKVEIK", "log10 Kd, replicates": "0.19 / -0.07 / 0.03 / -0.43 / -0.03 / -0.19", "empty controls": "0/18"}
{"VL": "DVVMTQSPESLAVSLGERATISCKAEQGVLYESRNKNSVAWYQQKAGQPPKLLIYGASTRESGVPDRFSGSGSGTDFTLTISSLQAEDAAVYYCQQYHRLPLSFGGGTKVEIK", "log10 Kd, replicates": "0.44 / 0.07 / -0.12 / -0.05 / -0.25 / 0.40", "empty controls": "0/18"}
{"VL": "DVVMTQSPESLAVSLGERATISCKFSQSVLLESRNKNSVAWYQQKAGQPPKLLIYNASTRESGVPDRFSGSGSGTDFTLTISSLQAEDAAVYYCQWYHRLPLSFGGGTKVEIK", "log10 Kd, replicates": "1.91 / 1.07 / 1.41 / 1.50 / 1.47 / 3.20", "empty controls": "0/18"}
{"VL": "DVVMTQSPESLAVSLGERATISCKSSQSFLYESRWKNSVAWYQQKAGQPPKLLIYDASQRESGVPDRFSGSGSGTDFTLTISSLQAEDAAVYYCQQYHRLPLSFGGGTKVEIK", "log10 Kd, replicates": "0.47 / 0.07 / -0.07 / 0.21 / -0.31 / 0.23", "empty controls": "1/18 (1.99)"}
{"VL": "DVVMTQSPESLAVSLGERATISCKFSQSVLYESRQKNSVAWYQQKAGQPPKLLIYNASTRESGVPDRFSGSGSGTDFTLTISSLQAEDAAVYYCQQYHQLPLSFGGGTKVEIK", "log10 Kd, replicates": "0.17 / 0.33 / 0.08 / 0.28 / 0.01 / 0.35", "empty controls": "0/18"}
{"VL": "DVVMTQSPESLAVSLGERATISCKQSQSYGYESRNKNSVAWYQQKAGQPPKLLIYGASTRESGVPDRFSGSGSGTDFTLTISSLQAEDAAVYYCQQYHRLPLSFGGGTKVEIK", "log10 Kd, replicates": "-0.29 / 0.09 / -0.10 / -0.08 / -0.04 / 0.31", "empty controls": "1/18 (3.66)"}
{"VL": "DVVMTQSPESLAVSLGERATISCKLQQSWLYESRNKNSVAWYQQKAGQPPKLLIYSASTREEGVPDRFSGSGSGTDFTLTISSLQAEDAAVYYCQQYHRLPLSFGGGTKVEIK", "log10 Kd, replicates": "-0.20 / -0.46 / -0.49 / -0.57 / -0.42 / -0.27", "empty controls": "2/18 (1.76)"}
{"VL": "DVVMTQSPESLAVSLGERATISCKSLQSVLYESRNKNSVAWYQQKAGQPPKLLIYHASQREDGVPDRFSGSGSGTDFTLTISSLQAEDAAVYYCQQYHRLPLSFGGGTKVEIK", "log10 Kd, replicates": "0.29 / 0.12 / 0.15 / 0.47 / 0.34 / 0.55", "empty controls": "0/18"}
{"VL": "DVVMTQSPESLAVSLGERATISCKFSQSVAYESRMKNSVAWYQQKAGQPPKLLIYNASTRESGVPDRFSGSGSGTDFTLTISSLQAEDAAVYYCQQYHRLPLSFGGGTKVEIK", "log10 Kd, replicates": "-0.12 / -0.24 / -0.15 / -0.32 / -0.12 / 0.28", "empty controls": "0/18"}
{"VL": "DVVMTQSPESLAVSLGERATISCKVSQSFLYESRNKNSVAWYQQKAGQPPKLLIYGASTRESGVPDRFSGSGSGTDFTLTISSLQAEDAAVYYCQEYHRLPLSFGGGTKVEIK", "log10 Kd, replicates": "0.80 / 0.33 / 0.31 / 0.37 / 0.46 / 0.76", "empty controls": "1/18 (2.08)"}
{"VL": "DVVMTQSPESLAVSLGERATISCKLCQSVLYESRNKNSVAWYQQKAGQPPKLLIYHASTREDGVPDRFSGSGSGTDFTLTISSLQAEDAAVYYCEQYHRLPLSFGGGTKVEIK", "log10 Kd, replicates": "0.31 / -0.12 / -0.32 / -0.32 / -0.10 / 0.00", "empty controls": "1/18 (2.00)"}
{"VL": "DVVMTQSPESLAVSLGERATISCKSSISDLYESRNENSVAWYQQKAGQPPKLLIYEASTREQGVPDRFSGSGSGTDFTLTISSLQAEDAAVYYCQQYHRLPLSFGGGTKVEIK", "log10 Kd, replicates": "0.25 / 0.29 / 0.28 / 0.07 / 0.10 / 0.38", "empty controls": "2/18 (3.34)"}

Reference: Li et al. 2023, doi:10.1038/s41467-023-39022-2. File: FLAb, binding data.